Source: PubChem BioAssay AID504327 (National Center for Advancing Translational Sciences (NCATS), 2011)
Only a part is listed here, and it is no random draw. Records with an inconclusive call do not appear. The source made the active and inactive calls. Calls follow the shape of the dose curve; as a rule, active = well fitted inhibition curve with a large enough effect; inconclusive = small, poorly fitted or top-dose-only effect, or another doubt; inactive = no such curve, though single readings can be large or run the other way.

The chains behind the UniProt entries cited, without tags or fusion partners.
UniProt Q92830, whole entry: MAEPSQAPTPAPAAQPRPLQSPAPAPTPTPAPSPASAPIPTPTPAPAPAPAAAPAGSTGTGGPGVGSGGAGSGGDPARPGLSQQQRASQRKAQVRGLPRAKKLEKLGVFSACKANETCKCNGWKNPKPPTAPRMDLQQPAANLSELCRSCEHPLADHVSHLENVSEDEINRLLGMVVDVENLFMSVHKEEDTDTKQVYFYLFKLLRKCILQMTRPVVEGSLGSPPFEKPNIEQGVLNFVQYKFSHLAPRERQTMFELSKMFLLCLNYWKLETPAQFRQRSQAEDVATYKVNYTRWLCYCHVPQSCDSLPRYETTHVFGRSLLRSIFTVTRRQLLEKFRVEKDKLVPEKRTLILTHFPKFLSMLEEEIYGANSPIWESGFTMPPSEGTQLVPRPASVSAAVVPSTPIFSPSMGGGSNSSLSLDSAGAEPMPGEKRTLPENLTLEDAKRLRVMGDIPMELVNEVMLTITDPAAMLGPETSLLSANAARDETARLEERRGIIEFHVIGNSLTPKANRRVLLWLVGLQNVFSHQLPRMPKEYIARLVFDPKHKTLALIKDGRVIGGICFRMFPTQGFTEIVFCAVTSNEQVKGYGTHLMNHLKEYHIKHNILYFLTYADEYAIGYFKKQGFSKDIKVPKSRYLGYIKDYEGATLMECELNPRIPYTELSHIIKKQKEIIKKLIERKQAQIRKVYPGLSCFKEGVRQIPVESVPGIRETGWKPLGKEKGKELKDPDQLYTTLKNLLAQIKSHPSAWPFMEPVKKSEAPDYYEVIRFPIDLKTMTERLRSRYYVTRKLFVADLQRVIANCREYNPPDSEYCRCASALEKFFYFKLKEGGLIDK

Each compound was assayed against Histone acetyltransferase KAT2A (Homo sapiens) (UniProt Q92830) (assay: qHTS Assay for Inhibitors of GCN5L2). Conditions: GCN5L2 HAT assay, ThioGlo1 CoA-SH fluorescence; at 58.9 µM (top of the series).
% is scaled to controls: 0 for no effect and ±100 for the full control effect.

| Structure (SMILES) | activity change, negative = inhibition |
| --- | --- |
| COc1cc(C(=O)NCC2(N3CCOCC3)CCCCC2)cc(OC)c1C | inactive: -4.83% |
| O=C(NCC1(N2CCOCC2)CCCCC1)c1cc(Br)ccc1Cl | inactive: -1.74% |
| COc1ccc(C(=O)NCC2(N3CCOCC3)CCCCC2)cc1OC | inactive: -15% |
| N/C(=N\O)c1c(N)no[n+]1[O-] | inactive: 1.59% |
| O=C(O)c1cccc(Nc2c([N+](=O)[O-])cc([N+](=O)[O-])cc2[N+](=O)[O-])c1 | inactive: -25.6% |
| CCc1cc(C(=O)NCC2(N3CCCCC3)CCCCC2)sc1C | inactive: -4.83% |
| O=C(OC1CN2CCC1CC2)C1c2ccccc2C=Cc2ccccc21 (configuration not stated) | inactive: 0.681% |
| O=C(NCC1(N2CCOCC2)CCCCC1)c1ccccc1[N+](=O)[O-] | inactive: -0.0727% |
| N#Cc1ccc(C(=O)NCC2(N3CCCCC3)CCCCC2)cc1 | inactive: -7.23% |
| O=C(NCC1(N2CCOCC2)CCCCC1)c1ccc([N+](=O)[O-])cc1 | inactive: -4.89% |
| CC(C)(C)OC(=O)N1CCC(N(C(=O)c2ccccc2)c2ccc(Cl)cc2)CC1 | inactive: -4.29% |
| CCOC(=O)C(CC)C1=NC(C)(C)Cc2ccccc21.O=[N+]([O-])c1cc([N+](=O)[O-])c(O)c([N+](=O)[O-])c1 (configuration not stated) | inactive: -2.47% |
| CN(C)C1(CNC(=O)c2cccc(C#N)c2)CCCCC1 | inactive: -8.02% |
| CCCN1CCC(Nc2cc(OC)cc(OC)c2)CC1 | inactive: 3.32% |
| O=C(NCC1(N2CCOCC2)CCCCC1)c1ccccc1 | inactive: -15.4% |
| c1ccc(CN2CCC(Nc3ccccc3)CC2)cc1 | inactive: -5.7% |
| CN(C)C1(CNC(=O)c2ccc(C(C)(C)C)cc2)CCCCC1 | inactive: -2.22% |
| COc1cc(OC)cc(C(=O)NCC2(N3CCCCC3)CCCCC2)c1 | inactive: -8.13% |
| Fc1ccccc1NC1CCN(Cc2ccccc2)CC1 | inactive: -3.66% |
| Cc1ccc(C(=O)NCC2(N3CCCCC3)CCCCC2)o1 | inactive: -3.49% |
| CCN1CCC(Nc2cccc(F)c2)CC1 | inactive: 1.81% |
| CN(C)c1ccc(C(=O)NCC2(N3CCCCC3)CCCCC2)cc1 | inactive: 12.8% |
| O=C(NCC1(N2CCCCC2)CCCCC1)c1ccco1 | inactive: -2.81% |
| CC(C)(C)c1ccc(C(=O)NCC2(N3CCOCC3)CCCCC2)cc1 | inactive: -12.7% |
| CN1CCC(Nc2ccc(F)c(Cl)c2)CC1 | inactive: -4.22% |
| CCOc1ncccc1C(=O)NCC1(N2CCOCC2)CCCCC1 | inactive: -3.78% |
| O=C(O)C1(Nc2ccccc2)CCN(Cc2ccccc2)CC1 | inactive: -3.99% |
